The target in experiment [1] is T1, human TLR2 (Homo sapiens (Human), UniProt O60603). Kind of experiment: HEK-Blue hTLR2 antagonism assay (SEAP reporter), agonist Pam2CSK4. Type of experiment: cell-based. The protocol:
(§1) Synthetic diacylated lipoprotein (Pam2CSK4, TLR2/6 agonist) and synthetic triacylated lipoprotein (Pam3CSK4, TLR1/2 agonist) were obtained from InvivoGen and were dissolved in endotoxin-free water to a concentration 1 mg/mL, vortexed until complete solubilization, and stored in aliquots at −20° C. Prior to addition to cells, an aliquot of the dissolved ligand was vortexed shortly and then was diluted in medium to 25 ng/mL Pam2CSK4 or 1000 ng/mL Pam3CSK4.
(§2) Test compounds were solubilized fresh to 10-20 mM stocks in DMSO and sonicated for 5-10 minutes in a water bath sonicator. Serial dilutions were prepared in DMSO, and then diluted in medium. The final concentration of DMSO used in the assay was 1%.
(§3) HEK-Blue hTLR2 reporter cells (InvivoGen) are HEK-293 cells stably expressing both the human TLR2 gene and a secreted embryonic alkaline phosphatase (SEAP) reporter construct downstream of NFκB promotor sites. HEK-Blue hTLR2 reporters were cultured according to manufacturer's protocol using Dulbecco's Modified Eagle Medium (DMEM; Gibco) containing 1× GlutaMax (Gibco), 10% heat-inactivated Fetal Bovine Serum (Gibco), Pen-Strep (50 U/mL penicillin, 50 μg/mL streptomycin, Gibco), 100 μg/mL Normocin (InvivoGen), and the selective antibiotic, lx HEK-Blue Selection (InvivoGen). Quanti-Blue reagent (InvivoGen) for detection and quantification of secreted alkaline phosphatase was dissolved in 100 mL of endotoxin-free water, warmed to 37° C. for 30 minutes and then filtered using a 0.2 μm membrane.
On day 1, 50 μL of each test compound dilution in duplicates or a vehicle control was added to each well of a 96-well plate followed by addition of 150 μL of HEK-Blue hTLR2 cell suspension (1×10^5 cells/well) and incubated at 37° C./5% CO2 for 2 h. Next, 50 μL of an approximate 3×EC50 concentration of each agonist (Pam2CSK4 or Pam3CSK4) was added to the wells containing test compounds or the vehicle control. The plates were then incubated at 37° C./5% CO2 for 18 h. For each assay run, non-treated HEK-Blue hTLR2 cells were treated with serial dilutions of agonists to determine EC50 values for the respective run.
On day 2, secreted alkaline phosphatase (SEAP) activity was detected in cell culture supernatants. In brief, 20 μL was collected from each well and transferred to a 96-well plate. Next, 200 μL of Quanti-Blue detection reagent was added to each well. Plates were incubated at room temperature for 15 min and SEAP activity was assessed by spectrophotometer OD reading at 655 nm. […] IC50 values were calculated based on 8-point dilutions for each compound.

Amino acid sequences for entries named in this document (tags omitted). Residues count along the entry.
UniProt O60603, 21-784: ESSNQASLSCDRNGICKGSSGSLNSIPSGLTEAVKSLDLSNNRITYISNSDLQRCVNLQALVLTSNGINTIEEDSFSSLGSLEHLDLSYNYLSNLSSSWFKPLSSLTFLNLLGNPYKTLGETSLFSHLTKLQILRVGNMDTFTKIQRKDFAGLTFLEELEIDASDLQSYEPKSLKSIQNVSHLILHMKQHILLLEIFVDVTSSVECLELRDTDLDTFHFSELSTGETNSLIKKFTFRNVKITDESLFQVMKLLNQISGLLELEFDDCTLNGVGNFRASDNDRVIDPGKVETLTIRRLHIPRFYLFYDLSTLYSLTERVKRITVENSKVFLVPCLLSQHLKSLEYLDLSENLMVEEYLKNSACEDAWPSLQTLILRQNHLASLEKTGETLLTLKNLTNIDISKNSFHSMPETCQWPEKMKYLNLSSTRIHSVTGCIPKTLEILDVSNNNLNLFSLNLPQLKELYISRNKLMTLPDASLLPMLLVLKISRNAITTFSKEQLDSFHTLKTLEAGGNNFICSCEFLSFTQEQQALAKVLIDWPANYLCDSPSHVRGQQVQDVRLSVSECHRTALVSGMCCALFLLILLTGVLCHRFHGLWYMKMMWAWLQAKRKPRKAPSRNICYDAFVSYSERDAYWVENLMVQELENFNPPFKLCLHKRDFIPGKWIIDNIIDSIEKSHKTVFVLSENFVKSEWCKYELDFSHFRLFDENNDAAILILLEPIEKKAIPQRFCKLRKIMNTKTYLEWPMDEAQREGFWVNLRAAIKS

Experiment [2] deals with T1, human TLR2. Kind of experiment: HEK-Blue hTLR2 antagonism assay (SEAP reporter), agonist Pam3CSK4. It is filed as cell-based. The procedure: as §1, §2, §3
On day 1, 50 μL of each test compound dilution in duplicates or a vehicle control was added to each well of a 96-well plate followed by addition of 150 μL of HEK-Blue hTLR2 cell suspension (1×10^5 cells/well) and incubated at 37° C./5% CO2 for 2 h. […]
On day 2, secreted alkaline phosphatase (SEAP) activity was detected in cell culture supernatants. […] Plates were incubated at room temperature for 15 min and SEAP activity was assessed by spectrophotometer OD reading at 655 nm. […] IC50 values were calculated based on 8-point dilutions for each compound.

Each structure is given as a SMILES string.

As to `O=Cc1cc(C(=O)N2CCC(O)(c3ccc(N4CCCC4)nc3)CC2)cc(F)c1O` [Compound 142, 3-fluoro-2-hydroxy-5-(4-hydroxy-4-(6-(pyrrolidin-1-yl)pyridin-3-yl)piperidine-1-carbonyl)benzaldehyde], the IC50 in experiment [1] was 34.2 µM; in experiment [2], 34.8 µM.

As for `O=Cc1cc(C(=O)N2CCCN(c3ccc(N4CCCC4)nc3)CC2)cc(F)c1O` [Compound 141, 3-fluoro-2-hydroxy-5-(4-(6-(pyrrolidin-1-yl)pyridin-3-yl)-1,4-diazepane-1-carbonyl)benzaldehyde], the IC50 came to 50.4 µM in experiment [1] and 40.1 µM in experiment [2].

For the molecule `O=Cc1cc(C(=O)N2CCS[C@@H](c3ccc(N4CCCC4)cc3)C2)cc(F)c1O` [Compound 153, (S)-3-fluoro-2-hydroxy-5-(2-(4-(pyrrolidin-1-yl)phenyl)thiomorpholine-4-carbonyl)benzaldehyde], the half-inhibitory concentration (IC50) in experiment [1] was 4.8 µM.

For the molecule `O=Cc1cc(C(=O)N2CCC(c3ccnc(N4CCCC4)c3)CC2)cc(F)c1O` [Compound 36, 3-fluoro-2-hydroxy-5-(4-(2-(pyrrolidin-1-yl)pyridin-4-yl)piperidine-1-carbonyl)benzaldehyde], the IC50 was 17.4 µM in experiment [1] and 15.1 µM in experiment [2].

Usually IC50 stands for the concentration at which inhibition is half-maximal. Low values mean higher potency, high ones lower potency.

These data come from patent publication US20240043395A1, “COMPOUNDS AND COMPOSITIONS AS MODULATORS OF TLR SIGNALING” (Neuropore Therapies, Inc., priority 2020, published 2024).
